Literature values, collected in patent US9238053B2, “Methods for treatment of pain” (Nocicepta LLC, priority 2009, dated 2016).

The chains behind the UniProt entries cited, without tags or fusion partners. Where a name states a change or a piece, a line headed by the entry shows the natural chain unless it says otherwise.
UniProt P01210: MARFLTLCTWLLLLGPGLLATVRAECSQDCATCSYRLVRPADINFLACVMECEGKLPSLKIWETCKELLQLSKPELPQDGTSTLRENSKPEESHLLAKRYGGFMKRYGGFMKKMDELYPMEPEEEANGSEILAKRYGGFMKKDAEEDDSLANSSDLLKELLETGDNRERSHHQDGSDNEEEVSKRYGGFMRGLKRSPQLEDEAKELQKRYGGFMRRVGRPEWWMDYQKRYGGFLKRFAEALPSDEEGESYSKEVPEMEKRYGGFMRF

System: mice
Conditions: cited from earlier work

Substance: leucine enkephalin (YGGFL; Leu-enkephalin; UniProt P01210 230-234, looked up) [an opioid peptide]
- analgesic effect in acetic acid writhing test (nasal administration alone, mice): very limited analgesic effect
- analgesic effect in acetic acid writhing test (nasally administered with mixed enzyme inhibitors and absorption enhancers): high analgesic activity

Like-named read-outs stand apart in the source and are kept apart here.
